Sequences of proteins named here, by UniProt entry; tags and fusion partners are left off.
UniProt P28223, whole entry I181A/E264Q, looked up: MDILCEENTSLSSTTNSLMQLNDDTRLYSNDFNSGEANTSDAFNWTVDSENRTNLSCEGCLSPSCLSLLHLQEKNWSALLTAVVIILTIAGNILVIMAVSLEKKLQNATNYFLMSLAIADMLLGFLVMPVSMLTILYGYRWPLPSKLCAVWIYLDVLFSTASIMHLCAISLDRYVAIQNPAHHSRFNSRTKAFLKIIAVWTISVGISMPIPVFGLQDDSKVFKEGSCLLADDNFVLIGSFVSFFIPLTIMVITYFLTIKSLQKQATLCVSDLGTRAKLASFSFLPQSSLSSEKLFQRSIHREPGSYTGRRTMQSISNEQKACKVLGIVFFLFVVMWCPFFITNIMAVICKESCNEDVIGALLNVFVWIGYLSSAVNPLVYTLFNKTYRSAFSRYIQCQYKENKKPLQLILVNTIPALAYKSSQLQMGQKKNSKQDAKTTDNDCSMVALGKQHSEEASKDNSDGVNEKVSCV

In patent publication US20230384333A1 (priority 2020, published 2023):

How the values were obtained:
psychLight1 = psychLight1 (Homo sapiens, UniProt P28223, E264Q/I181A); experiment: cell-based; conditions: HEK-293T
Method: HEK293T cells were grown in DMEM, supplemented with fetal bovine serum (FBS) and penicillin-streptomycin. Cells were trans-fected with Effectene according to the manufacturer's instructions. Prior to imaging, cells were washed with Hank's Balanced Salt Solution (HBSS) supplemented with 2 mM MgCl2 and 2 mM CaCl2). All images were collected in HBSS containing Mg^2+ and Ca^2+.
HEK293T cells were plated and transfected concurrently 24 h prior to each experiment using the QIAGEN Effectene Transfection
Dose-response experiments were performed using an Automate Perfusion System. Cells (HEK293T) were grown on 12 mm cover-slips and transfected with psychLight1. The coverslips were then placed into a coverslip holder and washed with 5 mL of HBSS containing 2 mM MgCl2 and 2 mM CaCl2). Cells were perfused first with 5 mL of 0.1% DMSO, then drugs in ascending concentrations from 1 pM to […] were added, with the concentration of DMSO being held constant at 0.10%. […] For the competition studies described in FIG. 19, HEK293T cells were prepared as described above; however, the cells were first exposed to 5 mL of 0.2% DMSO. […] Finally, the DF/F was calculated using the average of the baseline (0.1 or 0.2% DMSO) and the average intensity between each dosage over the average of the baseline.

psychLight2 = format: cell-based, human
Method: Compounds unlikely to bind to the sensor should produce minimal to no response in either agonist or antagonist mode. Therefore, a ligand score was calculated as: […]

Compound | Emax (psychLight1) | ligand score (psychLight2)
COc1cc(CC(C)N)c(OC)cc1I (centres unmarked) [DOI, 2,5-dime-thoxy-4-iodoamphetamine] | 52.9% | –
CCN(CC)C(=O)[C@@H]1C=C2c3cccc4[nH]cc(c34)C[C@H]2N(C)C1 [LSD, lysergic acid diethylamide] | – | 21 and 20.9 and 23.0

Several values for one entry are separate records, joined by “and”; a condition that tells them apart may be missing. Equal entries are not always repeated.
